By Ki is commonly meant the equilibrium dissociation constant of an inhibitor or competing ligand from its target. Higher therefore signals weaker binding.

Assay [1] has as its target δ-opioid receptor (rat brain synaptosomal preparation) (rat) (UniProt P33533). In words: radioligand competition vs [^3H]DPDPE, rat brain synaptosomes. (Displacement assays read how much labelled ligand stays bound in the presence of the test substance.)
For assay [2], the target named is δ-opioid receptor of the mouse vas deferens (MVD) (mouse) (UniProt P32300). In words: cell-based or functional assay.

In assay [1], H-Dmt-Tic-OH (peptide) returned a Ki of 0.022 nM.
As to dermorphin C (peptide), the IC50 (δ agonist, MVD) in assay [2] worked out at 0.54 nM.

The record behind these values is patent US6753317.
